Our source for the Crkl phosphorylation values is patent publication US20100029676A1 (priority 2005, published 2010).

SMILES strings stand for the structures.

For the experiment, the system named is BCR-ABL. The experiment is classed as cell-based.

On to `Cc1nc(Nc2ncc(C(=O)Nc3c(C)cccc3Cl)s2)cc(N2CCN(CCO)CC2)n1` [dasatinib, N-(2-chloro-6-methylphenyl)-2-[[6-[4-(2-hydroxyethyl)-1-piperazinyl]-2-methyl-4-pyrimidinyl]amino]-5-thiazolecarboxamide], for which the Crkl phosphorylation result is reported as “inhibited in a dose-dependent manner”.
